According to published antibiotic growth screens (doi:10.1038/s41589-023-01349-8):
Some of the results follow.

System: A. baumannii ATCC 17978
Test: relative growth (fraction of control); higher = less inhibition
Details: 50 µM

| Structure (SMILES) | relative growth |
| --- | --- |
| CCC(=O)NNC(=O)c1cccc(O)c1 | 1.1 |
| COc1ccccc1CNC(=O)C[C@@H]1CC[C@@H]2[C@H](COC[C@@H](O)CN2C(=O)Nc2ccc(F)cc2)O1 | 1.01 |
| Cc1ncc(CO)c(CN)c1O | 1.05 |
| CCOP(=O)(CC(=O)O[C@H]1[C@@H]2OC(=O)[C@@H](Cc3ccc4ccccc4c3)C/C=C\C[C@H](Cc3ccc4ccccc4c3)C(=O)O[C@H]2[C@@H](OC)O[C@@H]1COC(=O)NCCCCCC(=O)NO)OCC | 1.07 |
| CCCCOc1ccc(C(=O)CCN2CCCCC2)cc1.Cl | 0.928 |
| Nc1ccc(C(=O)O)c(O)c1 | 0.979 |
| COc1ccc(S(=O)(=O)N[C@H]2C=C[C@@H](CC(=O)N3CCC(Cc4ccccc4)CC3)O[C@@H]2CO)cc1 | 1.01 |
| CC(=O)Nc1ccc(S(=O)(=O)c2ccc(NC(C)=O)cc2)cc1 | 1.12 |
| NC1CCCC[C@H]1N.O=C1[O][Pt][O]C1=O (stereo partly drawn) | 0.911 |
| O=C(O)c1ccccc1Nc1cccc(C(F)(F)F)c1 | 0.966 |
| OCCc1ccccc1 | 0.901 |
| O=C(C[C@@H]1CC[C@@H]2[C@H](COC[C@@H](O)CN2Cc2ccccc2F)O1)N[C@@H]1CCN(Cc2ccccc2)C1 | 1.11 |
| Cc1cnc2c(c1NCCN(C)C)c(=O)n(C)c(=O)n2C | 0.964 |
| C[C@H]1CN([C@@H](C)CO)C(=O)CCCn2nncc2CO[C@@H]1CN(C)C(=O)Nc1ccc2c(c1)OCO2 | 1.2 |
| C[C@H](CO)N1C[C@H](C)[C@@H](CN(C)C(=O)c2ccccc2)Oc2cc(C#CC3(O)CCCC3)ccc2S1(=O)=O | 0.971 |
| CS(=O)(=O)c1ccc(S(C)(=O)=O)s1 | 1.13 |
| Cc1cccc(C)c1OCC(=O)N[C@@H](Cc1ccccc1)[C@@H](O)C[C@H](Cc1ccccc1)NC(=O)[C@H](C(C)C)N1CCCNC1=O | 1.05 |
| COCC(=O)N1C[C@H](C)[C@H](OC)CN(C)C(=O)c2cc(NC(=O)Nc3ccccc3)ccc2OC[C@H]1C | 1.21 |
| CCc1nn(C)c2c(=O)c(=O)c2n(C)[nH]1 | 1.15 |
| COCC(=O)N1C[C@@H](C)[C@@H](OC)CN(C)C(=O)c2ccc(NC(=O)c3cc(C)on3)cc2OC[C@H]1C | 1.25 |
| O=C(NCCO)c1ccc(C(=O)NCCO)cc1 | 1.17 |

| Structure (SMILES) | relative growth |
| --- | --- |
| C[C@H](CO)N1C[C@H](C)[C@@H](CN(C)C(=O)Cc2ccncc2)Oc2cc(C#Cc3ccccc3F)ccc2S1(=O)=O | 0.814 |
| Clc1ccc(C(c2ccccc2Cl)C(Cl)Cl)cc1 (stereo not drawn) | 0.859 |
| C=CCOC(=O)[C@H]1[C@@H]2C(=O)O[C@@H](c3ccccc3)[C@@H](c3ccccc3)N2[C@@H](c2ccc(OCCOC(=O)[C@H]3C[C@H]4C(=O)N[C@@H](Cc5ccccc5)C(=O)N4[C@H]3c3cccc(OCCO)c3)cc2)[C@]12C(=O)Nc1ccc(I)cc12 | 1.12 |
| COC(=O)/C=c1\sc2n(c1=O)CCN=2 | 0.888 |
| C[C@@H]1CN([C@@H](C)CO)S(=O)(=O)c2ccc(-c3ccccc3F)cc2O[C@H]1CN(C)S(C)(=O)=O | 0.93 |
| CCCNC(=O)N(C)C[C@@H]1Oc2cc(-c3ccc(C)cc3)ccc2S(=O)(=O)N([C@@H](C)CO)C[C@H]1C | 0.816 |
| O=C1N[C@H](Cc2c[nH]c3ccccc23)COC(=O)[C@@H](Cc2ccc(F)cc2)CC=CC[C@@H]1CC(=O)N(CCO)Cc1ccccc1 | 0.982 |
| C[C@H](N[C@@H](CCc1ccccc1)C(=O)O)C(=O)N1Cc2ccccc2C[C@H]1C(=O)O | 1.19 |
| CN1CCN(C(=O)C[C@@H]2CC[C@@H](NC(=O)Cc3ccccn3)[C@H](CO)O2)CC1 | 0.886 |
| O=C(O)[C@H]1NC(=O)[C@@H]1Cc1ccccc1 | 1.08 |
| Cc1ccc(S[C@H](C)C(=O)c2ccc(C)c(Cl)c2)cc1 | 1.06 |
| O=C(/C=C/c1ccccc1)c1ccc(O)cc1 | 0.888 |
| O=C(O)c1ccc2c(c1)OCO2 | 1.11 |
| O=C(CN1CCOCC1)N[C@@H]1CC[C@@H](CCn2cc(C3CC3)nn2)O[C@@H]1CO | 1.02 |
| CN(C)c1nc(SCCO)nc(N(C)C)n1 | 1.01 |
| Cc1ccc(S[C@]2(C(=O)NC(C)C)CC(=O)N(Cc3ccccc3C(F)(F)F)[C@@H]2c2ccc(CO)cc2)cc1 | 0.9 |
| N=C(N=C(N)N)N1N=CC[C@@H]1c1ccccc1 | 0.946 |
| CC(=O)N1CCN(c2ccnc3c2c(=O)n(CC(=O)NC(C)(C)C)c(=O)n3C)CC1 | 0.964 |
| C[C@H](CO)N1C[C@H](C)[C@@H](CN(C)C(=O)C2CCOCC2)Oc2cc(-c3ccc(C(=O)N(C)C)cc3)ccc2S1(=O)=O | 1.06 |
| C[C@H](CO)N1C[C@H](C)[C@H](CN(C)S(=O)(=O)c2ccc(F)cc2)Oc2cc(Br)ccc2S1(=O)=O | 1.1 |
| O=C(CN1CCOCC1)NCC[C@@H]1CC[C@H](NC(=O)c2ccccc2F)[C@@H](CO)O1 | 1.08 |

| Structure (SMILES) | relative growth |
| --- | --- |
| Nc1nonc1C(=O)OCC(=O)c1ccccc1 | 0.902 |
| CC(C)c1c(C(=O)Nc2ccccc2)c(-c2ccccc2)c(-c2ccc(F)cc2)n1CC[C@@H](O)C[C@@H](O)CC(=O)[O-].[Ca+2] | 1.05 |
| O=C(O)CCC(=O)N1CC(=O)Nc2ccccc21 | 0.954 |
| Cn1c(=O)[nH]c(=O)c2c1ncn2CCNCc1ccco1 | 0.975 |
| COC(=O)CCCCCCC(=O)Nc1ccc([C@H]2O[C@@H](CSc3nc4ccccc4s3)C[C@H](c3ccccc3)O2)cc1 | 1.11 |
| CC(C)C#Cc1cnc2c(c1)C(=O)N([C@@H](C)CO)C[C@@H](C)[C@@H](CN(C)C(=O)c1ccc3c(c1)OCO3)O2 | 0.995 |
| CCn1c(Cl)nc2c1c(=O)n(C)c(=O)n2C | 0.925 |
| COc1cc(/C=C/C(=O)O)cc(OC)c1O | 0.92 |
| NCCCS(=O)(=O)O | 0.95 |
| O=C(C[C@H]1CC[C@H]2[C@@H](COC[C@H](O)CN2S(=O)(=O)c2ccccc2)O1)NCc1ccc2c(c1)OCO2 | 0.957 |
| Cc1ccc(S(=O)(=O)N[C@@H](Cc2ccccc2)C(=O)NCCCn2cc(-c3cccc(/C=C/C(=O)NO)c3)nn2)cc1 | 1.02 |
| Cc1ccc(CNC(=S)NCCO)cc1 | 1.02 |
| COC(=O)[C@@H](NC(=O)c1cccc(NC=O)c1O)[C@@H](C)O | 1.03 |
| Nc1nc(/C(=C/CC(=O)O)C(=O)N[C@@H]2C(=O)N3C(C(=O)O)=CCS[C@H]23)cs1 | 0.146 |
| CCOC(=O)c1c[nH]c(CC(C)=O)nc1=O | 1.01 |
| COC(=O)C[C@H]1C(C)(C)C(=O)[C@@H]2CC3C4=CC(=O)O[C@@H](c5ccoc5)[C@]4(C)CCC3[C@@]1(C)C2=O (stereo partly drawn) | 0.992 |
| N#C[C@H](NCCO)c1ccc(F)cc1 | 0.929 |
| C=CC1=C(C)/C(=C/c2[nH]c(Cc3[nH]c(/C=C4\NC(=O)C(C)=C4C=C)c(C)c3CCC(=O)O)c(CCC(=O)O)c2C)NC1=O | 1.11 |
| COc1ccccc1-c1cnc2c(c1)C(=O)N([C@@H](C)CO)C[C@H](C)[C@H](CN(C)C(=O)c1ccncc1)O2 | 0.991 |
| C[C@@H]1CNS(=O)(=O)CO1 | 1.05 |
| N[C@@H]1CC[C@@H](CCn2cc(-c3ccccn3)nn2)O[C@H]1CO | 0.93 |

| Structure (SMILES) | relative growth |
| --- | --- |
| C[C@@H]1O[C@@H](O[C@@H]2[C@@H](O)[C@H](C)O[C@@H](OC[C@H]3O[C@@H](Oc4c(-c5ccc(O)cc5)oc5cc(O)cc(O)c5c4=O)[C@H](O)[C@@H](O)[C@H]3O)[C@@H]2O)[C@H](O)[C@H](O)[C@H]1O | 1.11 |
| C=CCC[C@H](Cc1ccc(F)cc1)C(=O)OC[C@@H](NC(=O)[C@@H](CC=C)CC(=O)N[C@@H](CO)Cc1ccccc1)C(C)(C)C | 0.895 |
| O=C(CCCCCC(=O)N/N=C/[C@H](O)[C@@H](O)[C@@H](O)[C@H](O)CO)NO | 1.02 |
| NC1=N[C@H]2CS(=O)(=O)C[C@@H]2S1 | 0.982 |
| COCC#Cc1ccc2c(c1)O[C@H](CN(C)C(=O)CN(C)C)[C@H](C)CN([C@H](C)CO)S2(=O)=O | 0.922 |
| C=CCC[C@@H](Cc1ccc(F)cc1)C(=O)OC[C@@H](NC(=O)[C@@H](CC=C)CC(=O)N[C@H](CO)Cc1ccccc1)C(C)(C)C | 0.775 |
| CC(C)=CCCC1(C)C=Cc2c(O)c3c(c(CC=C(C)C)c2O1)OC12C(=CCCC1C(C)(C)O[C@@]2(C/C=C(\C)C(=O)O)C(=O)O)C3=O (stereo partly drawn) | 1.12 |
| CC/C=C(/C(=O)N[C@@H]1C(=O)N2C(C(=O)OCOC(=O)C(C)(C)C)=C(COC(N)=O)CS[C@H]12)c1csc(N)n1.Cl | 0.923 |
| Cc1noc(C)c1-c1ccc(N)cc1 | 1.12 |
| Nc1nc(N)c2nc(-c3ccccc3)c(N)nc2n1 | 1.04 |
| Cn1c(=O)c(=O)n(C)c2cc(S(=O)(=O)CCC(=O)NCc3ccccc3)ccc21 | 1.09 |
| Cc1ccccc1S(=O)(=O)N1C[C@H](O)COC[C@H]2O[C@H](CC(=O)NCCc3ccccc3)CC[C@@H]21 | 0.869 |
| CCC(=O)O[C@@H](O[P@](=O)(CCCCc1ccccc1)CC(=O)N1C[C@H](C2CCCCC2)C[C@H]1C(=O)[O-])C(C)C.[Na+] | 1.12 |
| C[C@H]1CC2C([C@@H](O)C[C@@]3(C)C2CC[C@]3(O)C(=O)CO)[C@@]2(C)C=CC(=O)C=C12 (stereo partly drawn) | 1 |
| COc1cccc(O)c1O | 0.941 |
| NCC[C@@H]1CC[C@H](NC(=O)Nc2ccc(F)cc2)[C@H](CO)O1 | 1.06 |
| O=C(C[C@@H]1CC[C@H]2[C@@H](COC[C@@H](O)CN2S(=O)(=O)c2ccc(Cl)cc2)O1)NCCN1CCCCC1 | 0.9 |
| C[C@H]1[C@H](OC(=O)CCC(=O)O)O[C@@H]2O[C@]3(C)CC[C@H]4[C@H](C)CC[C@@H]1[C@@]24OO3 | 0.829 |
| C[C@H](CO)N1C[C@H](C)[C@@H](CN(C)C(=O)C2CC2)Oc2cc(-c3ccc(C(=O)N(C)C)cc3)ccc2S1(=O)=O | 0.901 |
| CN1CCN(C(=O)C[C@H]2C=C[C@H](NC(=O)Cc3ccccn3)[C@H](CO)O2)CC1 | 1.15 |
